{"sequences": {"note": "By UniProt entry, the sequences of proteins in these tests, tags left out.", "UniProt P9WJY5, whole entry, looked up": "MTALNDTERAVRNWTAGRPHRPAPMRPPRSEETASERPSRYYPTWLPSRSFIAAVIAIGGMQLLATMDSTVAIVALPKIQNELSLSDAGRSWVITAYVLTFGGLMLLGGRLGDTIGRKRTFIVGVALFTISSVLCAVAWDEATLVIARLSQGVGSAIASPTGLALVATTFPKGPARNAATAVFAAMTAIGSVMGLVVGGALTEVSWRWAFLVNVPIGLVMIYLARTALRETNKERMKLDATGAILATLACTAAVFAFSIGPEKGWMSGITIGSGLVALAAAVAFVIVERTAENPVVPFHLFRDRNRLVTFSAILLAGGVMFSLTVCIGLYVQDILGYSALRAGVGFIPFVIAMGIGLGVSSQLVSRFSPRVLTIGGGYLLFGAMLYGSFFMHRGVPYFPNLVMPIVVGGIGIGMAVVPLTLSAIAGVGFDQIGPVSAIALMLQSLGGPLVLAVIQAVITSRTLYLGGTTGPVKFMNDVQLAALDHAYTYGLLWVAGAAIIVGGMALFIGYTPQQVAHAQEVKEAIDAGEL"}, "source": "paper PMC11961569", "about": "(Nature Communications, 2025)", "molecular_target": "Wild type EfpA (Mycobacterium tuberculosis, UniProt P9WJY5)"}
{"compound": "CC[n+]1c(-c2ccccc2)c2cc(N)ccc2c2ccc(N)cc21", "note": "[ethidium bromide]", "values": [{"measurement": "EtBr efflux fluorescence assay in E. coli JD838 cells", "value": "comparison of transport of EtBr, with that of wildtype EfpA"}]}
